How the values were obtained:
[1] = target: kappa opioid receptor (Cavia porcellus, UniProt P41144); test: kappa opioid binding: tritiated etorphine displacement in guinea pig brain homogenates (DADLE and DAGO added to saturate delta and mu sites); details: read-out: Opoid Binding Kappa Ki; guinea pig brain homogenate, [3H]etorphine, 200 nanomolar DADLE and 200 nanomolar DAGO
[2] = standard rat paw pressure analgesia test; assay type: in vivo; details: i.v.
Description: The ED50 doses for several representative compounds of this invention in the standard rat paw pressure analgesia test are presented in Table 1.

Amino acid sequences for entries named in this document (tags omitted). A change or cut given only in a name is not applied to a line headed by its entry. Residues count along the entry.
UniProt P41144: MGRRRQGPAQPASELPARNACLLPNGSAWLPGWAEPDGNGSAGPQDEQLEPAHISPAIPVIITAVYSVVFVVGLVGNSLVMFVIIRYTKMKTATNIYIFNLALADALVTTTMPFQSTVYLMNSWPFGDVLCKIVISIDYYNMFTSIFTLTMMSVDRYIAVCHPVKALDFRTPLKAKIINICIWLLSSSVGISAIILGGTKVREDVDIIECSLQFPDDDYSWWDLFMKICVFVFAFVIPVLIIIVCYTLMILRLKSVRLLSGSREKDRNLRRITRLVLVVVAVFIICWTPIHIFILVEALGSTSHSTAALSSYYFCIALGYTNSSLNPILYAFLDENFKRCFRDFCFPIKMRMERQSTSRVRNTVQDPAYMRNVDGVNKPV
UniProt A0ACM8Q262, 1-400: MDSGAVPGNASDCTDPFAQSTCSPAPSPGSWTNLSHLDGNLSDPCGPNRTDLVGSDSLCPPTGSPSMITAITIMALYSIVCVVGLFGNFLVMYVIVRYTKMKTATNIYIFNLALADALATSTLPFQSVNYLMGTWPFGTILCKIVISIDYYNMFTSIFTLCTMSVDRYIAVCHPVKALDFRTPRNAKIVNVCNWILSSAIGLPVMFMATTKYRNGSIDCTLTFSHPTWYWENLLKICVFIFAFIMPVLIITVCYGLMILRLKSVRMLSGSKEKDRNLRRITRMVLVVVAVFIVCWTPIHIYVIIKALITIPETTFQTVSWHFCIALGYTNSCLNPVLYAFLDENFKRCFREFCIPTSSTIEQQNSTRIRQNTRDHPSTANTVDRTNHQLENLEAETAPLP

[3] = target: mu opioid receptor (Cavia porcellus, UniProt A0ACM8Q262); test: mu opioid receptor binding: tritiated DAGO in guinea pig brain homogenates; details: read-out: Opoid Binding Mu Ki; guinea pig brain homogenate, [3H]DAGO, 150 minutes, 0° C.

Row | Structure (SMILES) | Ki [1] [nM] | Rat Paw Pressure MPE50 [2] [mg·kg] | Ki [3] [nM]
1 | CO[C@H]1C[C@@H](N2CCCC2)[C@H](N(C)C(=O)COc2cc(C)c(Cl)c(C)c2Cl)C[C@H]1OC (relative stereo) [Compound 8] | 150 | – | –
2 | CO[C@H]1C[C@@H](N2CCCC2)[C@H](N(C)C(=O)COc2cc(C)c(Cl)c(C)c2)C[C@H]1OC (relative stereo) [Compound 3] | 180 | – | –
3 | CO[C@H]1C[C@@H](N2CCCC2)[C@H](N(C)C(=O)COc2cccc(F)c2)C[C@H]1OC (relative stereo) [Compound 9, N-[4,5-Dimethoxy-2-(1-pyrrolidinyl)cyclohexyl]-2-(3-fluorophenoxy)-N-methylacetamide] | 400 | – | –
4 | CO[C@H]1C[C@@H](N2CCCC2)[C@H](N(C)C(=O)Cc2cccc3occc23)C[C@H]1OC (relative stereo) | 18 | 1.5 | 2800
5 | CO[C@H]1C[C@@H](N2CCCC2)[C@H](N(C)C(=O)CC2c3ccccc3-c3ccccc32)C[C@H]1OC (relative stereo) [Compound 7] | 8.7 | – | –
6 | CO[C@H]1C[C@@H](N2CCCC2)[C@H](N(C)C(=O)Cc2cccc3ccccc23)C[C@H]1OC (relative stereo) [Compound 5] | 39 | – | 6600
7 | CO[C@H]1C[C@@H](N2CCCC2)[C@H](N(C)C(=O)Cc2cccc3sccc23)C[C@H]1OC (relative stereo) | 16 | 0.8 | 820
8 | CO[C@H]1C[C@@H](N2CCCC2)[C@H](N(C)C(=O)COc2ccc(Cl)c(Cl)c2)C[C@H]1OC (relative stereo) [Compound 4] | 270 | – | –
9 | CO[C@H]1C[C@@H](N2CCCC2)[C@H](N(C)C(=O)Cc2ccc(Cl)c(Cl)c2)C[C@H]1OC (relative stereo) [Compound 6] | 23 | – | 500
